Structures are written as SMILES. Peptide text beside a SMILES is read from it. * marks the point of attachment. Benzoyl(4-F) = O=C(c1ccc(F)cc1)*

Assay [1] relates to DX3puroβ6mCherry (αvβ6+, red) cells. The experiment in a line: On-bead validation, binding of αvβ6+ fluorescent cells. As to conditions: 3 h post-incubation, qualitative.
The subject of assay [2] is DX3puroEmGFP (αvβ6−, green) cells. The experiment in a line: On-bead validation, binding of αvβ6− fluorescent cells. Conditions: 3 h post-incubation, qualitative.

On to `CC(C)C[C@H](NC(=O)[C@H](Cc1ccc(O)cc1)NC(=O)[C@@H](NC(=O)[C@H](CC(C)C)NC(=O)[C@H](CC(=O)O)NC(=O)CNC(=O)[C@@H](N)C(C)C)[C@@H](C)O)C(=O)N[C@@H](CCCCN)C(=O)N[C@@H](CCCCNC(=O)c1ccc(F)cc1)C(N)=O` [compound 1] (H-VGDLTYLKK(Benzoyl(4-F))-NH2; N-terminus assumed), for which the “on-bead binding to DX3puroβ6mCherry (αvβ6+, red) cells, single cell assay” value in assay [1] is “high selectivity”. For the same compound, in assay [2], the “on-bead binding to DX3puroEmGFP (αvβ6−, green) cells, single cell assay” value (from here on “on-bead binding to DX3puroEmGFP”) is reported as “little binding”.

As for `CSCC[C@H](NC(=O)[C@H](CC(C)C)NC(=O)[C@H](CC(=O)O)NC(=O)CNC(=O)[C@@H](N)CCCNC(=N)N)C(=O)N[C@@H](CCCCN)C(=O)N[C@@H](CC(C)C)C(=O)N[C@@H](C)C(=O)N[C@@H](CCCCNC(=O)c1ccc(F)cc1)C(N)=O` [compound 2] (H-RGDLMKLAK(Benzoyl(4-F))-NH2; N-terminus assumed), in assay [2], the “on-bead binding to DX3puroEmGFP” value is “noticeable binding”.

For the compound `CC(C)C[C@H](NC(=O)[C@H](CC(=O)O)NC(=O)CNC(=O)[C@@H](N)CCCNC(=N)N)C(=O)N[C@@H](C)C(=O)N[C@@H](CC(=O)O)C(=O)N[C@@H](CC(C)C)C(=O)N[C@@H](CCCNC(=N)N)C(=O)N[C@@H](CCCCNC(=O)c1ccc(F)cc1)C(N)=O` [compound 3] (H-RGDLADLRK(Benzoyl(4-F))-NH2; N-terminus assumed), in assay [2], the “on-bead binding to DX3puroEmGFP” value is given as “noticeable binding”.

As for `CC[C@H](C)[C@H](NC(=O)CN)C(=O)N[C@@H](CC(=O)O)C(=O)N[C@@H](CC(C)C)C(=O)N[C@H](C(=O)N[C@@H](CO)C(=O)N[C@@H](CC(C)C)C(=O)N[C@H](C(=O)N[C@@H](CCCCNC(=O)c1ccc(F)cc1)C(N)=O)[C@@H](C)O)[C@@H](C)O` [compound 4] (H-GIDLTSLTK(Benzoyl(4-F))-NH2; N-terminus assumed), the “on-bead binding to DX3puroβ6mCherry (αvβ6+, red) cells, single cell assay” value in assay [1] is “no binding”. Moreover, in assay [2], the “on-bead binding to DX3puroEmGFP” value is listed as “no binding”.

On to `CC(C)C[C@H](NC(=O)[C@H](CCC(=O)O)NC(=O)[C@H](CCCNC(=N)N)NC(=O)[C@H](CC(C)C)NC(=O)[C@H](CC(=O)O)NC(=O)CNC(=O)[C@@H](N)CCCNC(=N)N)C(=O)N[C@@H](C)C(=O)N[C@@H](CCCCNC(=O)c1ccc(F)cc1)C(N)=O` [compound 5] (H-RGDLRELAK(Benzoyl(4-F))-NH2; N-terminus assumed), for which, in assay [2], the “on-bead binding to DX3puroEmGFP” value is “noticeable binding”.
